For one compound, IC50 results are on record in patent publication US9371294B2, “Cycloalkenyl aryl derivatives for CETP inhibitor” (CHONG KUN DANG PHARMACEUTICAL CORP., priority 2011, dated 2016).

Sequences of proteins named here, by UniProt entry; tags and fusion partners are left off. Residues count along the entry.
UniProt P11597, 18-493 limits assumed: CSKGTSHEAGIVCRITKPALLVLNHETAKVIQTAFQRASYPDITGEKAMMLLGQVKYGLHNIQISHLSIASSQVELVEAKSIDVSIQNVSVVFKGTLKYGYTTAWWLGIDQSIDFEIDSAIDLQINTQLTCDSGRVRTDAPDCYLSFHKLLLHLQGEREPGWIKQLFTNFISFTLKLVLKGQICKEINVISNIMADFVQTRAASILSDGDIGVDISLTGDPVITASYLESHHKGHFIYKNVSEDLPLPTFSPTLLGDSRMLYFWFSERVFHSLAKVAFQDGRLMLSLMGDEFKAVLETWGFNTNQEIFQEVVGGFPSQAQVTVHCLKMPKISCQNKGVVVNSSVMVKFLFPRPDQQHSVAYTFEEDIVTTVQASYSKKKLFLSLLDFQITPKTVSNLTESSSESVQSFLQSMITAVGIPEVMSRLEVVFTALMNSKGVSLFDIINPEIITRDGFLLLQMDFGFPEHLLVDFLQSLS

For this test, the target named is cholesteryl ester transfer protein (Homo sapiens, UniProt P11597). Nature of the test: In vitro test for the ability to inhibit cholesteryl ester transfer. Particulars: [3H]-cholesteryl oleate transfer from rHDL-agarose to LDL; human plasma as CETP source; 37° C.; 16-10000 nM, duplicate.

The structures appear in SMILES notation.

Consider `COc1cc(F)c(C(C)C)cc1C1=C(CN2C(=O)O[C@H](c3cc(C(F)(F)F)cc(C(F)(F)F)c3)[C@@H]2C)CN(S(=O)(=O)C(F)(F)F)CC1`, for which the IC50 (commonly the concentration that inhibits the measured activity by half) was determined as 196 nM. This counts as sub-micromolar.
